Patent publication US9714234B2, “Carbazole carboxamide compounds” (Bristol-Myers Squibb Company, priority 2013, dated 2017)

By UniProt entry, the sequences of proteins in these tests, tags left out. Where a name states a change or a piece, a line headed by the entry shows the natural chain unless it says otherwise.
UniProt Q06187: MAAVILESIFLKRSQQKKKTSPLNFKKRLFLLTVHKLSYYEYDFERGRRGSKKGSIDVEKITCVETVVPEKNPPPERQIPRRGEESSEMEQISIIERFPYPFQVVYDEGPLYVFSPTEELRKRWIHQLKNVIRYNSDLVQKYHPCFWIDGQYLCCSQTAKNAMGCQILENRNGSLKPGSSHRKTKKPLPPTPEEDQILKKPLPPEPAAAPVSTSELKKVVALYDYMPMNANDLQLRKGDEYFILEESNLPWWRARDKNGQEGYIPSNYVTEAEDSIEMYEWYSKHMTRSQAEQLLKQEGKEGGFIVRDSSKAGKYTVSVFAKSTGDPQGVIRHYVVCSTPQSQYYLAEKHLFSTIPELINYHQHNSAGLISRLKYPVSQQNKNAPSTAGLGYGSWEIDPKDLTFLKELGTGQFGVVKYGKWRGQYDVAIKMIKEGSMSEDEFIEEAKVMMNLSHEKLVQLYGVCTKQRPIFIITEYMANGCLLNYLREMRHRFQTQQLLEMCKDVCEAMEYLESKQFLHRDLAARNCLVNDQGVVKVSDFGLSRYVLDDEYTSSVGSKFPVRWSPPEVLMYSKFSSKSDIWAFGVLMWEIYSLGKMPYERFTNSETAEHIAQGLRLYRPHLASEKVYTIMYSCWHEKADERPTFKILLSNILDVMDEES
UniProt O60674: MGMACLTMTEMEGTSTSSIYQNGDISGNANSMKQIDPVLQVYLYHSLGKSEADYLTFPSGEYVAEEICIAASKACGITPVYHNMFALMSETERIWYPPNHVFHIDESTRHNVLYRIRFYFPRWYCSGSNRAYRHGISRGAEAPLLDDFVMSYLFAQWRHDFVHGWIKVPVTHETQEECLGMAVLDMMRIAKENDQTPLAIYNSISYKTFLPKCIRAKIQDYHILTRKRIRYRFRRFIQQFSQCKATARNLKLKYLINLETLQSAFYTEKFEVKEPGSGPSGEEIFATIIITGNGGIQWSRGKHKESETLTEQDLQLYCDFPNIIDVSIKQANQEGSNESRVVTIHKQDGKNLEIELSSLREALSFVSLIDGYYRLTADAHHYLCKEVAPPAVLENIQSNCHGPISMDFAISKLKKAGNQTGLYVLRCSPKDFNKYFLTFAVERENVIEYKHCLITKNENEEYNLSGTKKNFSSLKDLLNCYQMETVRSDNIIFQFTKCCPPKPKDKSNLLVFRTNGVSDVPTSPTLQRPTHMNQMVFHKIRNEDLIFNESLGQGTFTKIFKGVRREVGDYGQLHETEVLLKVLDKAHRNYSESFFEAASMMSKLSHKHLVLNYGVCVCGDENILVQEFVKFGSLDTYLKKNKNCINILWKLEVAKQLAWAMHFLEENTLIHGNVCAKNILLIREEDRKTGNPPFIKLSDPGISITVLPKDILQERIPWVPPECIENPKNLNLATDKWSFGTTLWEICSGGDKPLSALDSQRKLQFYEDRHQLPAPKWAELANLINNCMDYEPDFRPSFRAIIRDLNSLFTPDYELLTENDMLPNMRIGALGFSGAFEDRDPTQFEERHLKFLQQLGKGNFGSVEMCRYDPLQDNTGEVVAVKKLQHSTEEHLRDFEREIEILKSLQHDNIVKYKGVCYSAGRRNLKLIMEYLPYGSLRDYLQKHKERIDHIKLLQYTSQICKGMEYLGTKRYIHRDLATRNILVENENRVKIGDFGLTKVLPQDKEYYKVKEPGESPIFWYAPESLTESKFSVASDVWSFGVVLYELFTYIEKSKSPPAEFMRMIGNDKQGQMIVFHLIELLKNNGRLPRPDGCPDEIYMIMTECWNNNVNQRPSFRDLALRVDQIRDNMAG

How the values were obtained:
human recombinant Btk = human recombinant Btk (Homo sapiens (Human), UniProt Q06187); experiment: Human Recombinant Btk Enzyme Assay; format: biochemical; details: human recombinant Btk 1 nM, ATP 20 μM
Jak2 tyrosine kinase = Jak2 tyrosine kinase (Homo sapiens (Human), UniProt O60674); experiment: Jak2 Tyrosine Kinase Assay; format: biochemical; details: selectivity for Btk over Jak2; larger value = more selective for Btk
Protocol: Jak2 Tyrosine Kinase Assay
Jak2 signaling occurs thru EPO and TPO, which control erythrocyte and platelet proliferation, respectively. Thus, inhibition of Jak2 tyrosine kinase can potentially lead to side-effects in the clinic. Btk inhibitors with improved selectivity over Jak2 tyrosine kinase are desired in order to minimize off target side-effects related to the inhibition of Jak2 tyrosine kinase.
The assays were performed in V-bottom 384-well plates. […] The reaction was initiated by the combination of Jak2 tyrosine kinase with substrates and test compounds. The reaction mixture was incubated at room temperature for 60 minutes and terminated by adding 45 μL of 35 mM EDTA to each sample. The reaction mixture was analyzed on the Caliper LABCHIP® 3000 by electrophoretic separation of the fluorescent substrate and phosphorylated product. […] The final concentration of reagents in the assays is ATP, 30 μM; Jak2 fluorescent peptide, 1.5 μM; Jak2, 1 nM; and DMSO, 1.6%. […] Compounds were dissolved at 10 mM in DMSO and evaluated at eleven concentrations, each in duplicate. IC50 values were derived by non-linear regression analysis.

IC50 (human recombinant Btk): 2.3 nM
Ratio of Jak2/Btk IC50 values (Jak2 tyrosine kinase): 520
Compound: Cc1c(-c2ccc(C(N)=O)c3[nH]c4cc(C(C)(C)O)ccc4c23)cccc1-n1c(=O)c2cccc(F)c2n(C)c1=O (atropisomer, axis not shown) [Example 3, 4-(3-(S)-(8-Fluoro-1-methyl-2,4-dioxo-1,2-dihydroquinazolin-3(4H)-yl)-2-methylphenyl)-7-(2-hydroxypropan-2-yl)-9H-carbazole-1-carboxamide]
